## Ab-14 light chain CDR variants: yeast mating affinities

Reference: Li et al. 2023, doi:10.1038/s41467-023-39022-2. File: FLAb, binding data.

Target: peptide PDVDLGDISGINAS, taken from heptad repeat 2 (HR2) of SARS-CoV-2 spike.

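Phage display of a naive human antibody library on the peptide gave the parent. Designed CDR sequences, proposed from the first random library and measured here. Several design methods are mixed in this list. AlphaSeq pools MATa yeast showing the antibodies with MATalpha yeast showing the peptide. After mating in shaken culture at 30 °C for 16 h, diploids were selected and their barcode pairs sequenced. A regression on co-assayed BCL2-family reference pairs converts the normalised counts of each replicate to an apparent Kd. Mating was done six times.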

Parent: Ab-14, a human scFv built as VH, a (GGGGS)3 linker, VL. Only the CDRs of the light chain vary.
VH: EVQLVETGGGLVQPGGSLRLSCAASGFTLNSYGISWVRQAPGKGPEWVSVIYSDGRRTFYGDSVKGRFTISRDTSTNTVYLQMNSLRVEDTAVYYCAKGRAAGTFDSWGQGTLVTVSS
VL: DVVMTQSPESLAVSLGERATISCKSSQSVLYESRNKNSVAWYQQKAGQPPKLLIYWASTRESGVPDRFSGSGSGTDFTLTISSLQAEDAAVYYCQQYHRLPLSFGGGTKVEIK

The parent's light chain CDRs are KSSQSVLYESRNKNSVA, WASTRES, QQYHRLPLS; each variant's own CDRs replace them letter for letter. Scale: log10 of Kd in nM, estimated from mating counts; low values are strong binders. A mean of the replicates is given; it leaves out those without a signal. "no signal" marks a missing value. The strain was present, yet no cells mated with the target were sequenced in any replicate, which points to weak or no binding. The authors' rule: three or more of the six replicates give a measured affinity, fewer mean a poor binder. Values of this round are not directly comparable with the first-round values of the same sequences. The parent sequence was in this pool as ten entries: three were never detected, three once, and four in most replicates, with averages from 0.34 to 2.37. Three control strains display no target. For all light chain designs, 4% of the pairings with them gave a signal, with a median of 2.64 and one signal in twenty below 1.59, so weak values seen in few replicates may be background. The control count says in how many pairings with the empty strains this scFv gave a signal.

CDR-L1 | CDR-L2 | CDR-L3 | mean log10 Kd (nM) | replicates with signal | control signals
HLSQSQLYESRNKNSVA | NASTRCS | QQYHRLPLS | -0.40 | 6/6 | 0/18
KVPQSMLYESRNANNVA | NAEQRES | QQYHRLPLS | -0.25 | 6/6 | 0/18
KLKQSVLYESRNKNSVA | EASTRES | QQYHRLPLS | -0.25 | 6/6 | 0/18
KSSQSVPYESYNKNSVA | WASTRES | QQYHRLPLS | 1.65 | 1/6 | 1/18
KSSQSVIYENRNHNSVA | GASHCEI | QQYHRLPLS | 1.10 | 2/6 | 0/18
KSSQSVVYESRNYNSVA | PASTRES | QQYHRLSLS | no signal | 0/6 | 0/18
KLVMSWGYESRNKNNVA | HASQRCS | QQYHRLPLS | 0.54 | 6/6 | 0/18
HISMITLQGMRQKNSVA | QMTTREN | QQYDRLPLA | 1.12 | 6/6 | 1/18
KLSQSVGGESRNKNSVA | EASTREQ | QQYHRLPLS | 0.02 | 6/6 | 0/18
KFSQSVWYESRTKNSVA | NASTRES | QQYHRLPLS | -0.03 | 6/6 | 2/18
KCSQSVLYESPNKNGVA | WASIRES | QQYMRLPLS | 1.03 | 6/6 | 0/18
KFSQSVLYESRTKNSVA | NANTRET | QQYHRLPLS | -0.40 | 6/6 | 2/18
SMETLSQDRRLDWSAVA | EAHTIYQ | QQYARLPLS | 1.57 | 6/6 | 0/18
KLSQSMLYESRNKNSVA | NASTRFS | QQYHRLPLS | -0.12 | 6/6 | 4/18
KSQQQVLYESRNKNSVA | WASTRES | QQYHRLPLS | 3.01 | 2/6 | 1/18
HINTLDVGVSDHYNAVA | EQRAAGI | QQYFRLPLS | 1.81 | 6/6 | 0/18
KSSQSVGYESRCKNSVA | SASTRES | QQYHRLPLS | 1.23 | 6/6 | 0/18
QLYAVQDLTSKNSNSVA | EQSTREN | QQYHRLPLS | 1.01 | 6/6 | 0/18
KLSPSWLYESRNKNSVA | NASTRES | QQYHRLPLS | -0.43 | 6/6 | 0/18
KVSQSWLYQSRNSNAVA | EASQREQ | QDYHRLPLS | 0.83 | 6/6 | 0/18
HLGIQTQGEMVSTQAVA | QESTRAK | QQYFRLPLI | 0.47 | 6/6 | 3/18
HISSMDGHDGGIIHNVA | DTGVTSR | QQYSRLPLI | 0.03 | 6/6 | 1/18
KLSQSVLYESRNKNNVA | GASTRMS | QQYHRLPLS | -0.34 | 6/6 | 0/18
HVSNLLTDEMVREYNIA | ETSHVEE | QQYERLPLI | 1.27 | 6/6 | 1/18
KLQQSDLYESRNKNSVA | EASTRCS | QQYHRLPLS | -0.01 | 6/6 | 1/18
QLEVFPLQAGSTMQAIA | DASHRTP | QQYSRLPLV | 0.84 | 6/6 | 1/18
HISTSMRYESSLKNAIA | NSQTRES | QQYHRLPLS | 0.06 | 6/6 | 1/18
KLEQSWLYESRNKNSVA | NASTREV | QQYHRLPLS | 0.07 | 6/6 | 2/18
KSSQSVINESRNLNSVA | WASTRVS | QQYHRLPLS | 1.49 | 6/6 | 2/18
TVSQVHEMLSHIKNSVA | DMNTRES | QQYDRLPLS | no signal | 0/6 | 0/18
QLMFKEATGMNNAYNVA | EAEYSGT | QQYSQLPLG | no signal | 0/6 | 0/18
KLSTSVLYESRMANNVA | AASTREE | QQYHRLPLS | 1.50 | 6/6 | 1/18
KSSQGVLYESRNKNSVA | GASLRES | QQYHRLPLS | 0.35 | 6/6 | 0/18
KLEQSTLYESRNPNSVA | NASTRES | QQYHRLPLS | 0.03 | 6/6 | 0/18
KSSQHVLYESNNKNSVA | HASTRES | QQYHRLPLS | 1.16 | 6/6 | 0/18
KLEQSMLYESRNSNSVA | NASTRMH | QQYHRLPLM | -0.07 | 6/6 | 1/18
KSSQAVLYESRNKNSVA | WASTRED | QQYMRLPLS | 0.46 | 6/6 | 1/18
KVSQSQCYEERNKNNVA | QASDRMS | QQYHRLPLS | -0.19 | 6/6 | 3/18
TIPTLMGHVSKHTNNVA | DQQTRED | QQYNRLPLS | 0.01 | 6/6 | 0/18
KIQQEGNYESRNKNSVA | SASTRCP | QQYHRLPLS | -0.02 | 6/6 | 0/18

The remaining entries, values ahead:

mean log10 Kd (nM) | replicates with signal | control signals | CDR-L1 | CDR-L2 | CDR-L3
0.43 | 6/6 | 2/18 | MISDLMLYGSRAKNPIA | NAETREY | QQYHRLPLE
0.79 | 6/6 | 2/18 | KIYQLGLGSQKINNNIA | QTSIREL | QSYNRLPLS
2.00 | 6/6 | 0/18 | KLSQSVLYESRNKNAVA | DASTRES | QLYHWLPLS
-0.03 | 6/6 | 1/18 | KLSQSVWMESRNKWSVA | NASYRES | QQYHRLPLS
0.33 | 6/6 | 3/18 | KIELSNSWHLRGTSAVA | QASTRAA | QQYQRLPLL
3.34 | 1/6 | 1/18 | TISQATYWESFNKNSVA | QTSTREE | QDYDRLPLS
1.37 | 4/6 | 0/18 | QLEQLQWPMGKDWHSIA | NATTLLA | QQYYYLPLM
2.00 | 5/6 | 0/18 | MISQLMNMGTFAINSVA | QASLRNE | QQYDRLPLT
0.19 | 6/6 | 0/18 | KSSWSYLGESGNKNSVA | EASTRES | QQYHRLPLS
1.53 | 6/6 | 0/18 | KLSQYVGGESRNKSSLA | DNNTRCD | QQYERLPLS
0.50 | 6/6 | 2/18 | TISQSWFVESRNKNNVA | EMSTREN | QDYDRLPLS
0.16 | 6/6 | 0/18 | ALSQSMDMTSRNKNSVA | DLQTREN | QQYHRLPLS
0.75 | 6/6 | 3/18 | KLSATYRYESQNKNNIA | EMTTRES | QCYHRLPLS
2.93 | 1/6 | 2/18 | KSLQSVLYESRNKNSVA | HASTRED | QQYHRTPLS
no signal | 0/6 | 0/18 | KITFQGMSSDAHQYSIA | QTNVYSQ | QQYNRLPLD
0.97 | 6/6 | 2/18 | TISQMTSWMSNQKNNVA | EVQTREN | QQYDRLPLS
-0.16 | 6/6 | 2/18 | NFSQSYLYESRNKNSVA | GGNTRES | QQYHRLPLS
1.88 | 6/6 | 0/18 | KVSPEMEYSSRNKASVA | HASTRES | QQYHRLPLS
2.82 | 5/6 | 1/18 | ILSESVLTLSRNINSVA | DNSTRES | QQYDRLPLS
-0.44 | 6/6 | 2/18 | KLSQSDLYESRNKNNVA | SASTRES | QQYHRLPLS
-0.29 | 6/6 | 4/18 | KLQQSMLYESRNHNNVA | AASDRES | QQYHRLPLS
2.21 | 6/6 | 1/18 | HLGYATMLEETVRNSVA | NNSTREE | QQYDRLPLS
1.27 | 6/6 | 1/18 | KLSPSGLYESRNKNSVA | WASTRVS | QQYHRLPLS
0.23 | 6/6 | 1/18 | KISQSVEMQQRNPNSVA | SASTRLS | QQYHRLPLS
-0.01 | 6/6 | 0/18 | KLEQSVLYESRNPNSVA | NASTRES | QQYHRLPLS
-0.30 | 6/6 | 0/18 | KLPQGVLYESRNKNSVA | GASQRES | QQYHRLPLS
0.36 | 6/6 | 3/18 | KSSQSQLYENRNKNSVA | SASQRES | QQYHRLPLS
3.30 | 4/6 | 0/18 | KSSQSWLYESRNKNSTA | GASTSES | QQYHRLPLS
-0.07 | 6/6 | 1/18 | KLTSVTGQEKVRGNNVA | EMATREN | QQYNRLPLS
-0.34 | 6/6 | 1/18 | KSSQSVAMESRNPNSVA | DASTRES | QQYHRLPLS
no signal | 0/6 | 0/18 | KSSQSVLYNSRHKNSVA | WASTRES | QQYHRLLLS
0.28 | 6/6 | 0/18 | HVPNYTENFMSAAQNIA | DQSAKTS | QQYDRLPLA
no signal | 0/6 | 0/18 | KSSQSQLLMSRNKNSVA | WASTRES | QQYHRLPLS
-0.28 | 6/6 | 0/18 | KISQSVLYESRNKNSVA | AASTREA | QQYHRLPLS
no signal | 0/6 | 0/18 | KSSQSVLYESRNKNSVA | WASTRES | VEEHRAPLS
-0.26 | 6/6 | 1/18 | KLSQSMLYESRNDNSVA | QASTRES | QQYHRLPLM
0.75 | 6/6 | 2/18 | FSAQSVLYESRNFNSVA | HASTRED | QQYHRLPLS
0.22 | 6/6 | 3/18 | KSSQSWDYESRNKNSVA | HASTREQ | QQYHRLPLS
-0.17 | 6/6 | 2/18 | KFSQSVLYEDRNKNSVA | NASTRLS | QQYHRLPLS
0.03 | 6/6 | 2/18 | KSSISVLYESMNKNSVA | EASTRMS | QQYHRLPLS

The first 6 entries again:

CDR-L1	CDR-L2	CDR-L3	mean log10 Kd (nM)	replicates with signal	control signals
HLSQSQLYESRNKNSVA	NASTRCS	QQYHRLPLS	-0.40	6/6	0/18
KVPQSMLYESRNANNVA	NAEQRES	QQYHRLPLS	-0.25	6/6	0/18
KLKQSVLYESRNKNSVA	EASTRES	QQYHRLPLS	-0.25	6/6	0/18
KSSQSVPYESYNKNSVA	WASTRES	QQYHRLPLS	1.65	1/6	1/18
KSSQSVIYENRNHNSVA	GASHCEI	QQYHRLPLS	1.10	2/6	0/18
KSSQSVVYESRNYNSVA	PASTRES	QQYHRLSLS	no signal	0/6	0/18